The values below are quoted from earlier work in publication PMC9997069 (Molecular Pharmaceutics, 2023).

Sequences of proteins named here, by UniProt entry; tags and fusion partners are left off. Residues count along the entry.
UniProt P02768, 25-609: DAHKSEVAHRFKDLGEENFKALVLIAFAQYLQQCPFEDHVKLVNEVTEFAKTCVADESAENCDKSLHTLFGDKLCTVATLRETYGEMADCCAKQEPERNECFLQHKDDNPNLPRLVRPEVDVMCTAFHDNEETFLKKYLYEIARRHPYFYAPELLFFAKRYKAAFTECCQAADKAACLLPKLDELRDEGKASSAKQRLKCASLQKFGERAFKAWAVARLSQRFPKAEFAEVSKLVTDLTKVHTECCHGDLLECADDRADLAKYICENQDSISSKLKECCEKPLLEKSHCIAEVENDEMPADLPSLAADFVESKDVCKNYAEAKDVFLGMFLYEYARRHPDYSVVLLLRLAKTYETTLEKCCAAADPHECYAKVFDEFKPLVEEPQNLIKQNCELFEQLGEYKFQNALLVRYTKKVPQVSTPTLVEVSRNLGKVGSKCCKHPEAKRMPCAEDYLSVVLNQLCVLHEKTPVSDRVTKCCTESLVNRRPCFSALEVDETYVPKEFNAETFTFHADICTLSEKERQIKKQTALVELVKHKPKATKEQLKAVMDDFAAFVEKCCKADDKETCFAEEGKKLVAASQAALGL

In this data set the target is T1, HSA (Homo sapiens, UniProt P02768).
T1 construct: purchased Sigma-Aldrich
As to conditions: 308 K; cited from earlier work.

SMILES strings stand for the structures.

In the case of `CNC(=O)c1ccccc1Sc1ccc2c(/C=C/c3ccccn3)n[nH]c2c1` [axitinib], the “binding constant to HSA” value is listed as 9.7 × 10^4 M^–1.
